One compound from publication PMC9694048 (Pharmaceutics, 2022) can be followed below.

For this experiment, the system named is P. aeruginosa. Kind of experiment: MIC by broth microdilution. It counts as cell-based. The following applies: 35 °C, 24 h, duplicates. The method, then:
The minimum inhibitory concentrations (MIC) of cationic peptides were determined using the broth microdilution method in a 96-well microtiter plate (Cellstar, Greiner Bio-One, Austria). The inoculum was prepared by suspending overnight grown isolated colonies selected from a Tryptic Soy Agar (TSA) plate in water for injection. The concentration of the inoculum suspension was adjusted to match that of the 0.5 McFarland’s standard (10^8 CFU/mL) and further diluted 150-fold by adding 50 μL of suspension into 7.5 mL of Mueller−Hinton broth to obtain an inoculum of 10^5 to 10^6 CFU/mL. Lyophilized peptide obtained from the manufacturer was dissolved in water and adjusted to a final concentration of 0.5 to 256 μg/mL in twofold serial dilutions. A total of 100 μL of the solution was then mixed with an equal volume of bacterial inoculum prepared before in 96-well plates. The plates were then incubated at 35 °C for 24 h, and the optical density at 600 nm (OD600) was determined using a TECAN microplate reader.

Converted amounts (≈) assume the structure as drawn.

For `CC[C@H](C)[C@H](NC(=O)CN)C(=O)NCC(=O)N[C@@H](C)C(=O)N[C@H](C(=O)N[C@@H](CC(C)C)C(=O)N[C@@H](CCCCN)C(=O)N[C@H](C(=O)N[C@@H](CC(C)C)C(=O)N[C@H](C(=O)N[C@H](C(=O)NCC(=O)N[C@@H](CC(C)C)C(=O)N1CCC[C@H]1C(=O)N[C@@H](C)C(=O)N[C@@H](CC(C)C)C(=O)N[C@H](C(=O)N[C@@H](CO)C(=O)N[C@@H](Cc1c[nH]c2ccccc12)C(=O)N[C@H](C(=O)N[C@@H](CCCCN)C(=O)N[C@@H](CCCNC(=N)N)C(=O)N[C@@H](CCCCN)C(=O)N[C@@H](CCCNC(=N)N)C(=O)N[C@@H](CCC(N)=O)C(=O)N[C@@H](CCC(N)=O)C(N)=O)[C@@H](C)CC)[C@@H](C)CC)[C@@H](C)O)[C@@H](C)O)C(C)C)C(C)C` [Melittin], the Minimum inhibitory concentration is, setting by setting: (strain P. aeruginosa 01 (first line so named, 8th strain of Table S1), Mueller-Hinton broth) 5.6 µM (≈ 15.9 µg/mL); (strain P. aeruginosa 01 (second line so named, 12th strain of Table S1), Mueller-Hinton broth) 5.6 µM (≈ 15.9 µg/mL); (strain P. aeruginosa 02, Mueller-Hinton broth) 11.2 µM (≈ 31.9 µg/mL); (strain P. aeruginosa 03, Mueller-Hinton broth) 5.6 µM (≈ 15.9 µg/mL); (strain P. aeruginosa 04, Mueller-Hinton broth) 11.2 µM (≈ 31.9 µg/mL); (strain P. aeruginosa 05, Mueller-Hinton broth) 5.6 µM (≈ 15.9 µg/mL). The same compound returned a Minimum inhibitory concentration (strain P. aeruginosa 06, Mueller-Hinton broth) of 2.8 µM (≈ 7.97 µg/mL); a Minimum inhibitory concentration (strain P. aeruginosa 07, Mueller-Hinton broth) of 2.8 µM (≈ 7.97 µg/mL); a Minimum inhibitory concentration (strain P. aeruginosa 08, Mueller-Hinton broth) of 5.6 µM (≈ 15.9 µg/mL); a Minimum inhibitory concentration (strain P. aeruginosa 09, Mueller-Hinton broth) of 2.8 µM (≈ 7.97 µg/mL); a Minimum inhibitory concentration (strain P. aeruginosa 10, Mueller-Hinton broth) of 2.8 µM (≈ 7.97 µg/mL); a Minimum inhibitory concentration (strain P. aeruginosa 9027, Mueller-Hinton broth) of 2.8 µM (≈ 7.97 µg/mL). Moreover, the Minimum inhibitory concentration is 5.6 µM (≈ 15.9 µg/mL) (strain P. aeruginosa 23155, Mueller-Hinton broth) and 5.6 µM (≈ 15.9 µg/mL) (strain P. aeruginosa 27853, Mueller-Hinton broth).
